The source of these data is PMC9683570.

The chains behind the UniProt entries cited, without tags or fusion partners. Where a name states a change or a piece, a line headed by the entry shows the natural chain unless it says otherwise.
UniProt Q13936, whole entry: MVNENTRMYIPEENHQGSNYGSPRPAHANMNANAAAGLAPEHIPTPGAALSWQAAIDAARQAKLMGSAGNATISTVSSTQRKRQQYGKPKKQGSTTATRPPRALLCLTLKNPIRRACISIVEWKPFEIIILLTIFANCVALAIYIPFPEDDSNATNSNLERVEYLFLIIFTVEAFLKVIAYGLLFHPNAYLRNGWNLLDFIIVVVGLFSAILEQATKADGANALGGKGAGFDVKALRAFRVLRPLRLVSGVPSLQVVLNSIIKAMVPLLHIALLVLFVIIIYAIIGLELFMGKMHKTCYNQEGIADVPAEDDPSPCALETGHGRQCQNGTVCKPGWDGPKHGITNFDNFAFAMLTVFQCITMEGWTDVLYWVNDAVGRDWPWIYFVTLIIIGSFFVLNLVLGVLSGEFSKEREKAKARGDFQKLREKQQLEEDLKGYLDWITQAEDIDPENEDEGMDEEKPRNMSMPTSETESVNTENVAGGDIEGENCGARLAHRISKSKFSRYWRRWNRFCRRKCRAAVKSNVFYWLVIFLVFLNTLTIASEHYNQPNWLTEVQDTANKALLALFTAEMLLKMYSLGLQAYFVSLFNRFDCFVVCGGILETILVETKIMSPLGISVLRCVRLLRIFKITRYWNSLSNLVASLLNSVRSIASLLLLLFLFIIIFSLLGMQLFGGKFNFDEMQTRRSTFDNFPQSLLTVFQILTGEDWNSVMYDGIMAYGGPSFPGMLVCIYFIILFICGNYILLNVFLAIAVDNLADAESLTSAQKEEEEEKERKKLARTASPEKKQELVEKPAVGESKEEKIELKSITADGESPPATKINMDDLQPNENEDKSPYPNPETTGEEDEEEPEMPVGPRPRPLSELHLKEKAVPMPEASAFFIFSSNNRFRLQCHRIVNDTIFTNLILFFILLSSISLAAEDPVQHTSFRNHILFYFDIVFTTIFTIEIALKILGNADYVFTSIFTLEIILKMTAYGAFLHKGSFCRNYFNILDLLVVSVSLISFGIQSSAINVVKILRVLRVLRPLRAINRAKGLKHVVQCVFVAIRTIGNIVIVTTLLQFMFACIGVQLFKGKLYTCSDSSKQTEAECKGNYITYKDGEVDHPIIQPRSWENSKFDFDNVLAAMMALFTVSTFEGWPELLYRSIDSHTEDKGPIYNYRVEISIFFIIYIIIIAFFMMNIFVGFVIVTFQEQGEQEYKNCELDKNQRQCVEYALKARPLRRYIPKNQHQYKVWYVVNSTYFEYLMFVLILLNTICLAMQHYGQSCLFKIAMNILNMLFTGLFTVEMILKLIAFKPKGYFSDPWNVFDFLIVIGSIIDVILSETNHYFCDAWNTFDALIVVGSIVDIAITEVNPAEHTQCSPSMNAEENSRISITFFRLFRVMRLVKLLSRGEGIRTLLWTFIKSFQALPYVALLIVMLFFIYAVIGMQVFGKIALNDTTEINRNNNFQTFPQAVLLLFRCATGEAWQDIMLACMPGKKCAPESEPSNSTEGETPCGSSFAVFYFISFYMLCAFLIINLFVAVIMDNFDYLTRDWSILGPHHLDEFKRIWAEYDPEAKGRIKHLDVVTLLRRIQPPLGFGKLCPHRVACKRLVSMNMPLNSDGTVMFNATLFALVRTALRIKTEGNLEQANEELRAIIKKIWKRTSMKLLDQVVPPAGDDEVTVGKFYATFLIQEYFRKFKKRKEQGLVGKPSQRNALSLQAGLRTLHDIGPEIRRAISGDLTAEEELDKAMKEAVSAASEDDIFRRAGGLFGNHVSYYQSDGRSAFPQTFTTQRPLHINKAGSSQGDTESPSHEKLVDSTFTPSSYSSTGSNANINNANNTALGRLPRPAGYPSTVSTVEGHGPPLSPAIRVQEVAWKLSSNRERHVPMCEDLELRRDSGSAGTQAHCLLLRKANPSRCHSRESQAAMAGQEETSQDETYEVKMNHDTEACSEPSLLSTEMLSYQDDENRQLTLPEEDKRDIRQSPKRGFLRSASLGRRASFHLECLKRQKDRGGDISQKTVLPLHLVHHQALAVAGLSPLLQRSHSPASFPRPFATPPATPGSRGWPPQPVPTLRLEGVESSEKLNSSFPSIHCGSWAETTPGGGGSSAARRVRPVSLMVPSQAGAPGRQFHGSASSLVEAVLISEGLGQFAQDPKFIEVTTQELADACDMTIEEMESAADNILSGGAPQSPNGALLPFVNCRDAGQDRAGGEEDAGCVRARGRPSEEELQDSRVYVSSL

Where a name gives a salt, the structure may show the parent alone.

The target of assay [1] is T1, CaV1.2 channels (hCav1.2α, β2, and α2δ1 subunits) (Homo sapiens, UniProt Q13936). Description: cell-based.
Assay [2] deals with T1, CaV1.2 channels (hCav1.2α, β2, and α2δ1 subunits).

As for `Cc1ccc(O)c([C@H](CCN(C(C)C)C(C)C)c2ccccc2)c1` [Tolterodine, tolterodine L-tartrate], the IC50 in assay [1] (IC50 for ICa-ramp) turned out to be 0.3 ± 0.1 µM; in assay [1] (IC50 for ICa-step), 2.6 ± 1.5 µM.

Regarding `C=CCN1CC[C@]23c4c5ccc(O)c4O[C@H]2C(=O)CC[C@@]3(O)[C@H]1C5` [Naloxone, Naloxone hydrochloride], the “nH (Hill coefficient) for IBa-step” value in assay [2] was found to be 0.2. Also, the IC50 in assay [1] (IC50 for IBa-ramp) turned out to be 87.1 ± 44.4 µM; in assay [1] (IC50 for IBa-step), 965 ± 1630 µM; in assay [1] (IC50 for ICa-ramp), 438 ± 317 µM; in assay [1] (IC50 for ICa-step) it was 751 ± 630 µM.
